Source: patent US6432969B1, “N-(substituted glycyl)-2 cyanopyrrolidines, pharmaceutical compositions containing them and their use in inhibiting dipeptidyl peptidase-IV” (Novartis AG, priority 2000, dated 2002)
pIC50: −log10 of the molar value.

Amino acid sequences for entries named in this document (tags omitted). Residues count along the entry.
UniProt P14740, 38-767 limits assumed: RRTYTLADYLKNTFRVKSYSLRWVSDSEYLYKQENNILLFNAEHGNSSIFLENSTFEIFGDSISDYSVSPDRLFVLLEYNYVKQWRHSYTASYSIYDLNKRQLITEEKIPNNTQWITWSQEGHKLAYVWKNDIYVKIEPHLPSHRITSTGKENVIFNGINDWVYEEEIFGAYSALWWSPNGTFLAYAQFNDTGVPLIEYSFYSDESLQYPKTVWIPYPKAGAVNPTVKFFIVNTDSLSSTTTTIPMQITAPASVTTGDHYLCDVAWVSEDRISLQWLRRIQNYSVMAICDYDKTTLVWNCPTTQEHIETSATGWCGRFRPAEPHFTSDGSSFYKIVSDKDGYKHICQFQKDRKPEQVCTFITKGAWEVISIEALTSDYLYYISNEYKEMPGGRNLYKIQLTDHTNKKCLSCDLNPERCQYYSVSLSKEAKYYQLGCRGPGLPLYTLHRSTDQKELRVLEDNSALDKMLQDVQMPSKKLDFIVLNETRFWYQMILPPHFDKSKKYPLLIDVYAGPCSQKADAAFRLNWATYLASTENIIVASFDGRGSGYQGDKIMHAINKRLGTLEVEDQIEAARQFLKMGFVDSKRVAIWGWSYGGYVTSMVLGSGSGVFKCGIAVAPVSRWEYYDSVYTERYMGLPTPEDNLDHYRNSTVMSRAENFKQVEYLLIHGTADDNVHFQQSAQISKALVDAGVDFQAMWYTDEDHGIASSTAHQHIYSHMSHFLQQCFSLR

target: T1, DPP-IV activity in rat plasma (Rattus norvegicus, UniProt P14740); test: Rat plasma DPP-IV assay; format: biochemical
T1 construct: 5 μl of plasma are added to 96-well flat-bottom micortiter plates; from tissue; host or cells: rat plasma

SMILES	pIC50
CC(C)(CNc1ccc(C#N)cn1)NCC(=O)N1CCC[C@H]1C#N [Ex. 2A, 1-[[[2-[(5-cyano-2-pyridinyl)amino]-1,1-dimethylethyl]amino]acetyl]-2-cyano-(S)-pyrrolidine]	8.30
N#CC1CCCN1C(=O)CNC1CCC(Oc2ccc(Cl)cc2)CC1 [Ex. 2FF, 1-[[4-[4-chlorophenoxy)cyclohexyl]amino]acetyl]-2-cyano-(S)-pyrrolidine]	7.38
CC(C)(Cc1ccccc1)NCC(=O)N1CCC[C@H]1C#N [Ex. 2CC, 1-[[(1,1-dimethyl-2-phenylethyl)amino]acetyl]-2-cyano-(S)-pyrrolidine]	7.68
